Assay results taken from ChEMBL document CHEMBL6087459 (J Med Chem, 2025).

System: HCT-8
Settings: human

## CCc1nn(C)c2nc(-c3ccc4c(c3)COB4O)nc(NCc3ccc(F)cc3)c12
  CC50: > 100 µM
